Patent US8541572B2
Where two headings read alike, the source gives them in different places.

The chains behind the UniProt entries cited, without tags or fusion partners. Residues count along the entry.
UniProt P78536, 215-477 S266A/N452Q: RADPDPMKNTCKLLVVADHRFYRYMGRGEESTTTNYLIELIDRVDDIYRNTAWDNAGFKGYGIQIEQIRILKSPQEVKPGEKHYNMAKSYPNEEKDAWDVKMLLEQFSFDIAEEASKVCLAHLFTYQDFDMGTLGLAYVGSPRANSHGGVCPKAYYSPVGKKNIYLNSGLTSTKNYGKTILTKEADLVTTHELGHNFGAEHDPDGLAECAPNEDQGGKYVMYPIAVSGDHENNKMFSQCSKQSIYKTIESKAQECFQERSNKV

Molecular target: recombinant human TACE catalytic domain (rhTACEc) (Homo sapiens (Human), UniProt P78536, N452Q/S266A)
Experiment: TACE kinetic FRET assay (cleavage of internally quenched peptide substrate TNF-FRET 2), Ki
[1] = recombinant human TACE catalytic domain, FRET assay

| SMILES | Ki [1] [nM] | other results |
| --- | --- | --- |
| COc1ccc2c(c1F)C(=O)N(C[C@@]1(C#Cc3ccc(N4CCNCC4)cc3)NC(=O)NC1=O)C2 [Compound 1706] | 0.38 | – |
| COc1ccc2c(c1)C(=O)N(C[C@@]1(C#Cc3cncc(-c4cc[nH]n4)c3)NC(=O)NC1=O)C2 [Compound 2234] | 0.06 | – |
| C#C[C@]1(CN2Cc3ccc(OC)c(F)c3C2=O)NC(=O)NC1=O [Compound 23] | – | Ki (TACE): 0.68 nM |
| COc1ccc2c(c1F)C(=O)N(C[C@@]1(C#Cc3ccc(-c4nc(-c5cccnc5)ccc4O)cc3)NC(=O)NC1=O)C2 [Compound 1001] | 0.0781 | – |
| COc1ccc2c(c1F)C(=O)N(C[C@@]1(C#Cc3cccnc3C)NC(=O)NC1=O)C2 [Compound 2273] | – | Ki (TACE): 0.19 nM |
| COc1ccc2c(c1)C(=O)N(C[C@@]1(C#Cc3ccc(OC)nc3OC)NC(=O)NC1=O)C2 [Compound 2230] | 1.09 | – |
| COc1ccc2c(c1)C(=O)N(C[C@@]1(C#Cc3ccc(C(=NO)N4CCN(C5CCCCCC5)CC4)cc3)NC(=O)NC1=O)C2 [Compound 927] | – | Ki: 0.063 nM |
| COc1ccc2c(c1)C(=O)N(C[C@@]1(C#Cc3ccc(-c4nc(-c5ccncc5)ccc4O)cc3)NC(=O)NC1=O)C2 [Compound 970] | 0.0556 | – |
| COC(=O)C(c1ccc(C#C[C@]2(CN3Cc4ccc(OC)cc4C3=O)NC(=O)NC2=O)cc1)N1CCCNCC1 (some centres unmarked) [Compound 2271] | – | Ki (TACE): 0.57 nM |
| COc1ccc2c(c1)C(=O)N(C[C@@]1(C#Cc3ccc(Nc4c(N)c(=O)c4=O)cc3)NC(=O)NC1=O)C2 [Compound 1308] | 0.19 | – |
| COc1ccc2c(c1)C(=O)N(C[C@@]1(C#Cc3ccc4c(c3)CCCC43NC(=O)NC3=O)NC(=O)NC1=O)C2 (some centres unmarked) [Compound 2312] | – | Ki (TACE): 0.29 nM |
| CCN1CCC(C(=O)OC)(c2ccc(C#C[C@]3(CN4Cc5ccc(OC)cc5C4=O)NC(=O)NC3=O)cc2)CC1 [Compound 2276] | – | Ki (TACE): 0.283 nM |
| COc1ccc2c(c1)C(=O)N(CC1(C#Cc3cccc4c3CCC43NC(=O)NC3=O)NC(=O)NC1=O)C2 (centres unmarked) [Compound 1318] | 0.53 | – |
| COc1ccc2c(c1)C(=O)N(C[C@@]1(C#Cc3cccnc3-c3cn[nH]c3)NC(=O)NC1=O)C2 [Compound 2266] | – | Ki (TACE): 0.12 nM |
| COc1ccc2c(c1F)C(=O)N(C[C@@]1(C#Cc3ccc(C4(C#N)CCN(C)CC4)cc3)NC(=O)NC1=O)C2 [Compound 1313] | 0.28 | – |
| COc1ccc2c(c1F)C(=O)N(C[C@@]1(C#Cc3ccc4c(=O)[nH][nH]c4c3)NC(=O)NC1=O)C2 [Compound 301] | 0.349 | – |
| COc1ccc2c(c1)C(=O)N(C[C@@]1(C#Cc3ccc(C4(C)NC(=O)NC4=S)cc3)NC(=O)NC1=O)C2 (some centres unmarked) [Compound 2258] | – | Ki (TACE): 0.21 nM |
| CCN1CCN(C(=O)C2CC(=O)N(c3ccc(C#C[C@]4(CN5Cc6ccc(OC)cc6C5=O)NC(=O)NC4=O)cc3)C2)CC1 (some centres unmarked) [Compound 1319] | 1.2 | – |
| COc1ccc2c(c1)C(=O)N(C[C@@]1(C#Cc3cnc(N)nc3N)NC(=O)NC1=O)C2 [Compound 2209] | 0.22 | – |
| COc1ccc2c(c1)C(=O)N(C[C@@]1(C#Cc3ccc4oc(C5(C)NC(=O)NC5=O)c(C)c4c3)NC(=O)NC1=O)C2 (some centres unmarked) [Compound 910] | – | Ki (TACE): 0.22 nM |
| COc1ccc2c(c1)C(=O)N(C[C@@]1(C#Cc3ccc(-c4ccccc4O)nc3)NC(=O)NC1=O)C2 [Compound 2277] | – | Ki (TACE): 1.67 nM |
| COc1ccc2c(c1)C(=O)N(C[C@@]1(C#Cc3ccc(C4(C(N)=O)CC4)cc3)NC(=O)NC1=O)C2 [Compound 2260] | – | Ki (TACE): 0.28 nM |
| COc1ccc2c(c1F)C(=O)N(C[C@]1(C#Cc3ccc(CN4CCN(C5CCCCC5)CC4)cc3)NC(=O)NC1=O)C2 [Compound 985] | 46300 | – |
| COc1ccc2c(c1)C(=O)N(C[C@@]1(C#Cc3ccc(C(=NO)c4ccc(F)cc4)cc3)NC(=O)NC1=O)C2 [Compound 2245] | – | Ki: 0.26 nM |
| CCN1CCN(C(=O)C2CCC(=O)N2c2ccc(C#C[C@]3(CN4Cc5ccc(OC)c(F)c5C4=O)NC(=O)NC3=O)cc2)CC1 (some centres unmarked) [Compound 1903] | 0.23 | – |

| SMILES | Ki [1] [nM] | other results |
| --- | --- | --- |
| COc1ccc2c(c1)C(=O)N(C[C@@]1(C#Cc3ccc(-c4ncccc4OC(=O)C(C)(C)C)cc3)NC(=O)NC1=O)C2 [Compound 1008] | 0.0762 | – |
| COc1ccc2c(c1)C(=O)N(C[C@@]1(C#Cc3ccc(C(=NO)N4CCCN(C(C)C)CC4)cc3)NC(=O)NC1=O)C2 [Compound 931] | – | Ki (TACE): 0.19 nM |
| COc1ccc2c(c1)C(=O)N(C[C@@]1(C#Cc3ccc(C(CN)N4CCC(NC(=O)OC(C)(C)C)C4)cc3)NC(=O)NC1=O)C2 (some centres unmarked) [Compound 1703] | 0.52 | – |
| COc1ccc2c(c1)C(=O)N(C[C@@]1(C#Cc3ccc(C(=NO)N4CCN(C)CC4)cc3)NC(=O)NC1=O)C2 [Compound 943] | – | Ki: 0.083 nM |
| COc1ccc2c(c1F)C(=O)N(C[C@@]1(C#Cc3ccc(CN4CCN(c5ccncc5)CC4)cc3)NC(=O)NC1=O)C2 [Compound 981] | 0.388 | – |
| COc1ccc2c(c1)C(=O)N(C[C@@]1(C#Cc3ccc(C(=NO)N4CCCCC4)cc3)NC(=O)NC1=O)C2 [Compound 946] | – | Ki: 0.12 nM |
| COc1ccc2c(c1F)C(=O)N(C[C@@]1(C#Cc3cncc(NC(=O)C4CCN(C)CC4)c3)NC(=O)NC1=O)C2 [Compound 1907] | 0.18 | – |
| COc1ccc2c(c1F)C(=O)N(C[C@@]1(C#Cc3cccnc3)NC(=O)NC1=O)C2 [Compound 2267] | – | Ki (TACE): 0.11 nM |
| COc1ccc2c(c1)CCN(C[C@@]1(C#Cc3ccc(C(=NO)N4CCN(C)CC4)cc3)NC(=O)NC1=O)C2=O [Compound 2320] | – | Ki: 0.24 nM |
| CCN1CCN(C(=NO)c2ccc(C#C[C@]3(CN4CCc5cc(OC)ccc5C4=O)NC(=O)NC3=O)cc2)CC1 [Compound 2316] | – | Ki: 0.27 nM |
| COc1ccc2c(c1)C(=O)N(C[C@@]1(C#Cc3ccc(/C=N\Nc4ccccc4)cc3)NC(=O)NC1=O)C2 [Compound 935] | – | Ki: 0.986 nM |
| COc1ccc2c(c1)C(=O)N(C[C@@]1(C#Cc3ccc(N4CCCCC4=O)cc3)NC(=O)NC1=O)C2 [Compound 2295] | – | Ki (TACE): 0.68 nM |
| COc1ccc2c(c1)C(=O)N(C[C@@]1(C#Cc3cccc(C(=NO)N4CCOCC4)c3)NC(=O)NC1=O)C2 [Compound 916] | – | Ki: 0.18 nM |
| COc1ccc2c(c1)C(=O)N(C[C@@]1(C#Cc3ccc4c(c3)C(C)Oc3cccnc3-4)NC(=O)NC1=O)C2 (some centres unmarked) [Compound 929] | – | Ki (TACE): 0.46 nM |
| COc1ccc2c(c1)C(=O)N(C[C@@]1(C#Cc3ccc(N(c4cccnc4)C4CCNCC4)nc3)NC(=O)NC1=O)C2 [Compound 2200] | 1.02 | – |
| CCN1CCN(C(=NO)c2cncc(C#C[C@]3(CN4Cc5ccc(OC)cc5C4=O)NC(=O)NC3=O)c2)CC1 [Compound 923] | – | Ki: 0.39 nM |
| COc1ccc2c(c1)C(=O)N(C[C@@]1(C#Cc3ccc(-c4noc(C(C)C)n4)cc3)NC(=O)NC1=O)C2 [Compound 1505] | – | Ki: 0.92 nM |
| COc1ccc2c(c1)C(=O)N(C[C@@]1(C#Cc3ccc(-n4c(-c5cccnc5)n[nH]c4=O)cc3)NC(=O)NC1=O)C2 [Compound 1916] | 0.43 | – |
| COc1ccc2c(c1)C(=O)N(C[C@@]1(C#Cc3ccc(C4(CNS(C)(=O)=O)NC(=O)NC4=O)cc3)NC(=O)NC1=O)C2 (some centres unmarked) [Compound 1110] | 0.338 | – |
| COc1ccc2c(c1F)C(=O)N(C[C@@]1(C#Cc3ccc(N4C(=O)NC5(CC5)C4=O)c(F)c3)NC(=O)NC1=O)C2 [Compound 1317] | 0.34 | – |
| CCN1CCN(C(=O)C2CCC(=O)N2c2ccc(OC)c(C#C[C@]3(CN4Cc5ccc(OC)cc5C4=O)NC(=O)NC3=O)n2)CC1 (some centres unmarked) [Compound 1917] | 1.15 | – |
| COc1ccc2c(c1F)C(=O)N(C[C@@]1(C#Cc3ccc(-c4cccc(N5CCN(C6CCCCC6)CC5)n4)cc3)NC(=O)NC1=O)C2 [Compound 993] | 0.835 | – |
| COc1ccc2c(c1F)C(=O)N(C[C@@]1(C#Cc3ccc4c(c3)CN(C)C(=O)N4)NC(=O)NC1=O)C2 [Compound 307] | 0.31 | – |
| COc1ccc2c(c1)C(=O)N(C[C@@]1(C#Cc3ccc(C(=NO)N4CCC(=O)CC4)cc3)NC(=O)NC1=O)C2 [Compound 945] | – | Ki: 0.17 nM |
| COc1ccc2c(c1)C(=O)N(C[C@@]1(C#Cc3ccc(C(=NO)N4CCSCC4)cc3)NC(=O)NC1=O)C2 [Compound 912] | – | Ki: 0.16 nM |

The next lines start with results.

| Ki [1] [nM] | SMILES | other results |
| --- | --- | --- |
| 0.19 | COc1ccc2c(c1)C(=O)N(C[C@@]1(C#Cc3ccc(N4CCCCC4)nc3)NC(=O)NC1=O)C2 [Compound 1509] | – |
| 0.51 | COc1ccc2c(c1)C(=O)N(C[C@@]1(C#Cc3ccc(-n4cncn4)cc3)NC(=O)NC1=O)C2 [Compound 1170] | – |
| 0.43 | COc1ccc2c(c1)C(=O)N(C[C@@]1(C#Cc3cc(Br)ccc3O)NC(=O)NC1=O)C2 [Compound 2229] | – |
| 0.47 | COc1ccc2c(c1)C(=O)N(C[C@@]1(C#Cc3nc(N)ccc3O)NC(=O)NC1=O)C2 [Compound 1921] | – |
| 0.523 | COc1ccc2c(c1)C(=O)N(C[C@@]1(C#Cc3ccc(C(=O)N4CCC(N5CCCCC5)CC4)cc3)NC(=O)NC1=O)C2 [Compound 963] | – |
| 0.259 | COc1ccc2c(c1)C(=O)N(C[C@@]1(C#Cc3ccc4c(O)nn(C)c4c3)NC(=O)NC1=O)C2 [Compound 715] | – |
| 0.92 | COc1ccc2c(c1)C(=O)N(C[C@@]1(C#Cc3ccc(-c4cnccc4OC)nc3)NC(=O)NC1=O)C2 [Compound 1105] | – |
| 0.55 | CCN1CCN(Cc2ccc(C#C[C@]3(CN4Cc5ccc(OC)cc5C4=O)NC(=O)NC3=O)cn2)CC1 [Compound 977] | – |
| 0.17 | COc1ccc2c(c1)C(=O)N(C[C@@]1(C#Cc3ccc(NC(=O)C4CCN(C)CC4)cc3)NC(=O)NC1=O)C2 [Compound 1909] | – |
| 0.6 | COc1ccc2c(c1)C(=O)N(C[C@@]1(C#Cc3ccc(-n4cnc(CCNC(C)=O)c4)nc3)NC(=O)NC1=O)C2 [Compound 1130] | – |
| 3.54 | COc1ccc2c(c1)C(=O)N(C[C@@]1(C#Cc3ccc(-c4cccc(C)c4O)nc3)NC(=O)NC1=O)C2 [Compound 1300] | – |
| 0.0988 | CCN1CCN(c2ccc(O)c(-c3ccc(C#C[C@]4(CN5Cc6ccc(OC)cc6C5=O)NC(=O)NC4=O)cc3F)n2)CC1 [Compound 976] | – |
| 0.46 | CCN1CCN(c2ccc(OC)c(-c3ccc(C#C[C@]4(CN5Cc6ccc(OC)cc6C5=O)NC(=O)NC4=O)cc3)n2)CC1 [Compound 972] | – |
| 0.43 | COc1ccc2c(c1)C(=O)N(C[C@@]1(C#Cc3cnc(N4CCC(=O)CC4)nc3N)NC(=O)NC1=O)C2 [Compound 2210] | – |
| 3.45 | COc1ccc2c(c1)C(=O)N(C[C@@]1(C#Cc3ccc(-c4cccc(N5CCSCC5)n4)cc3)NC(=O)NC1=O)C2 [Compound 998] | – |
